From paper PMC4844575, “The influence of different metal-chelate conjugates of pentixafor on the CXCR4 affinity” (EJNMMI Research, 2016)

Protein sequences, listed by entry. Tags and fused reporters are not part of them.
UniProt P61073, whole entry: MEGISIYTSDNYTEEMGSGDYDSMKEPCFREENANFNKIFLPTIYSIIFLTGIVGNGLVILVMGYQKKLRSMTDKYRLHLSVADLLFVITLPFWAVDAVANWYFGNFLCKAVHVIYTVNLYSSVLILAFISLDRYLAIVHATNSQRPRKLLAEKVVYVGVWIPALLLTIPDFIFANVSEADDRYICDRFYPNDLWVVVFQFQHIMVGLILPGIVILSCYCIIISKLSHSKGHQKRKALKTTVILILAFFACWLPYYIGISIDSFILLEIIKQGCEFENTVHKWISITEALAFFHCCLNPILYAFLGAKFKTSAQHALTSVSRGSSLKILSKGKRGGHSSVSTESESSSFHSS

Target: T1, CXCR4 (Homo sapiens, UniProt P61073)
T1 construct: endogenous in cells; host or cells: Jurkat T-cell leukemia cells
Experiment: competitive binding assay on Jurkat cells with [125I]FC131 as radioligand
Conditions: Jurkat T-cells, 4 × 10^5 cells per vial, app. 0.1 nM [125I]FC131, 120 min incubation, mean ± SD (n = 3)
Method: For in vitro experiments, the Jurkat T - cell line was used. […] The cell line was cultured at 37 °C in a humidified atmosphere with 5 % CO2 and passaged two to three times a week, depending on the cell count.
Jurkat cells (4 × 10^5 cells per vial) were incubated with the respective peptide of interest at the final concentrations ranging from 10^−11 to 10^−5 M and app. […] The total sample volume was 250 μL. After an incubation time of 120 min, the vials were centrifuged at 1300 rpm (Heraeus Megafuge, Thermo) for 3 min and the supernatant was removed. The cells were washed twice with 200 μL ice-cold Hank’s balanced salt solution (HBSS). After each washing step, the samples were centrifuged and the supernatant removed. Finally, the amount of displaced and bound radioligand in the combined fractions of the supernatant and the cell pellet was quantified. The half maximal inhibitory concentration (IC50) values were determined using GraphPad Prism software.

N=C(N)NCCC[C@@H]1NC(=O)[C@H](CCCNC(=N)N)NC(=O)[C@@H](Cc2ccc(O)cc2)NC(=O)CNC(=O)[C@H](Cc2ccc3ccccc3c2)NC1=O [FC131, cyclo(-D-Tyr-L-Arg-L-Arg-L-Nal-Gly-), reference compound]
IC50: 9.9 nM
